Measurements published in patent publication US11071788B2, “Antibody drug conjugates of kinesin spindel protein (KSP) inhibitors with antiB7H3-antibodies” (BAYER PHARMA AKTIENGESELLSCHAFT, priority 2015, dated 2021).
Substitutions are numbered along the chain they refer to.

T1: human B7H2 (Homo sapiens (Human), UniProt O75144)
T1 sequence (O75144 whole entry, looked up): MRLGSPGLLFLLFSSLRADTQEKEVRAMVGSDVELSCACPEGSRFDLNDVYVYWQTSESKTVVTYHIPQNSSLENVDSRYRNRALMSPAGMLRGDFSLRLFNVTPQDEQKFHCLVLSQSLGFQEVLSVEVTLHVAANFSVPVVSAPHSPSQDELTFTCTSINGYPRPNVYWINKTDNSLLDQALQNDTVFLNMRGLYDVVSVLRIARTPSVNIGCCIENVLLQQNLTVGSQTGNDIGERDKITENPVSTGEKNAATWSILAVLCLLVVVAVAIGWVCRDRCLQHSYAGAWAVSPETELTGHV

T2: human B7H3 (Homo sapiens (Human), UniProt Q5ZPR3)
T2 sequence (Q5ZPR3 whole entry, looked up): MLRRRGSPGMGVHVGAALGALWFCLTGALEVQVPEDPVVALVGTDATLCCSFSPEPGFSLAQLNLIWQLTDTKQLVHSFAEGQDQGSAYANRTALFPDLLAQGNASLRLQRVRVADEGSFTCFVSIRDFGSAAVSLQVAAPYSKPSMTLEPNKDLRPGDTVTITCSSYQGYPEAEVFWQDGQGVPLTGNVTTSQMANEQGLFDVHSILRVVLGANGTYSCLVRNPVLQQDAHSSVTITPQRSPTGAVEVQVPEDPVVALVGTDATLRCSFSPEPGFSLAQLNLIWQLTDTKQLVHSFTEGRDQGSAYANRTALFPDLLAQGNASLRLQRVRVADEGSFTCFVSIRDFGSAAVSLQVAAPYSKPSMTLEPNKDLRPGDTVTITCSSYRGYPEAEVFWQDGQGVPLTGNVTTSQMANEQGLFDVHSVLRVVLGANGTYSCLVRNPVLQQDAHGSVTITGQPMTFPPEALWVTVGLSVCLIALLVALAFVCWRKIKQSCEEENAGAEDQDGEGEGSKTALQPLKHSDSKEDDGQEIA

T3: human B7H4 (Homo sapiens (Human), UniProt Q7Z7D3)
T3 sequence (Q7Z7D3 whole entry, looked up): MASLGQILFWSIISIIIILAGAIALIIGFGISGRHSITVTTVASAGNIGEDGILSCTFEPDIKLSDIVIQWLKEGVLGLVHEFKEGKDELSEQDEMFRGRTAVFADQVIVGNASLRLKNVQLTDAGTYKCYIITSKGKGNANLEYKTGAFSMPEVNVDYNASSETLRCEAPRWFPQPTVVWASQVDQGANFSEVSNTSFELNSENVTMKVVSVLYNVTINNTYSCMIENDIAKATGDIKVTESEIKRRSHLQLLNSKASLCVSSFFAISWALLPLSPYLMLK

B1: TPP6515 (antibody)
heavy: EVQLLESGGGLVQPGGSLRLSCAASGFTFSSYGMHWVRQVPGKGLEWVSAISGSGGTTYYADSVKGRFTISRDNSKNTLYLQMNSLRAEDTAVYYCARGGYHFLFDYWGQGTLVTVSSASTKGPSVFPLAPSSKSTSGGTAALGCLVKDYFPEPVTVSWNSGALTSGVHTFPAVLQSSGLYSLSSVVTVPSSSLGTQTYICNVNHKPSNTKVDKKV[left out - human IgG1 Fc]
light: QSVLTQPPSASGTPGQRVTISCSGSSSNIGSNTVNWYQQLPGTAPKLLIYRNDQRLLGVPDRFSGSKSGTSASLAISGLRSEDEADYYCQSYDSSLSGWVFGGGTKLTVLGQPKAAPSVTLFPPSSEELQANKATLVCLISDFYPGAVTVAWKADSSPVKAGVETTTPSKQSNNKYAASSYLSLTPEQWKSHRSYSCQVTHEGSTVEKTVAPTECS
modifications: TPP-6515 Heavy Chain (IgG); TPP-6515 Light Chain (IgG)
B2: TPP6499 (antibody)
heavy: EVQLLESGGGLVQPGGSLRLSCAASGFTFRDFYMNWIRQAPGKGLEWVSSISASGKYTYYADSVKGRFTISRDNSKNTLYLQMNSLRAEDTAVYYCAREWGYCTNDVCRNWFDPWGQGTLVTVSSASTKGPSVFPLAPSSKSTSGGTAALGCLVKDYFPEPVTVSWNSGALTSGVHTFPAVLQSSGLYSLSSVVTVPSSSLGTQTYICNVNHKPSNTKVDKKV[left out - human IgG1 Fc]
light: QSVLTQPPSASGTPGQRVTISCSGGYSNVGGNNVNWYQQLPGTAPKLLIYGNSNRPSGVPDRFSGSKSGTSASLAISGLRSEDEADYYCQSYDSSLSGSVFGGGTKLTVLGQPKAAPSVTLFPPSSEELQANKATLVCLISDFYPGAVTVAWKADSSPVKAGVETTTPSKQSNNKYAASSYLSLTPEQWKSHRSYSCQVTHEGSTVEKTVAPTECS
modifications: TPP-6499 Heavy Chain (IgG); TPP-6499 Light Chain (IgG)
B3: TPP6502 (antibody)
heavy: B1 heavy with S31T, V40A, T57S, A97T, G100Y, H102Y, F103Y, L104G, F105M, Y107V
light: B2 light with Y26S, V29I, G31S, N33P, N54K, S99W
modifications: TPP-6502 Heavy Chain (IgG); TPP-6502 Light Chain (IgG)

Each molecule was assayed against T1, human B7H2 (assay: ELISA binding of anti-B7H3 antibodies to human B7H2).
Experimental: (§1) TPP6497, TPP6499, TPP6501, TPP6502 and TPP6515 were synthesized as described above. Binding of the antibodies to human B7H3 and to human B7H2 and B7H4 was characterized using ELISAs. Black 384-well Maxisorp plates (Nunc) were coated with anti-human IgG Fc (Sigma, 12316; 1:440 dilution) in single coating buffer (Candor) for one hour at 37° C. After washing once with PSB, 0.05% Tween, the plate was blocked with 100% Smart Block (Candor) for one hour at 37° C. The antibody to be tested was then attached to the plate (2 μg/ml IgG in PBS, 0.05% Tween, 10% Smart Block; 1 hour, room temperature). After washing three times, the plate was incubated with the antigen in question or with buffer alone (37 ng/ml in PBS, 0.05% Tween, 10% Smart block; B7H2: RnDSystems, 8206-B7; B7H3: RnDSystems, 2318-B3-050/CF; B7H4. RnDSystems, 6576-B7; 1 hour, room temperature). After washing three times, the plate was incubated with an anti-His HRP antibody (Novagen, 71840-3; 1:10000 dilution; 1 hour, room temperature). After washing three times, the plate was incubated with Amplex Red for 30 minutes and then read.

Molecule	Binding to B7H2 (ELISA, in words)
B1	not B7H2 or B7H4
B2	not B7H2 or B7H4
B3	not B7H2 or B7H4

What follows are molecules tested against T2, human B7H3 (assay: ELISA binding of anti-B7H3 antibodies to human B7H3).
Experimental: as §1

Molecule	Binding to B7H3 (ELISA, in words)
B1	bind B7H3
B2	bind B7H3
B3	bind B7H3

Each molecule was assayed against T3, human B7H4 (assay: ELISA binding of anti-B7H3 antibodies to human B7H4).
Experimental: as §1

Molecule	Binding to B7H4 (ELISA, in words)
B1	not B7H2 or B7H4
B2	not B7H2 or B7H4
B3	not B7H2 or B7H4
